Measurements as given in PubChem BioAssay AID743287 (Broad Institute, 2014).
The entries are a selection whose mix differs from that of the whole data set. Some of these compounds have results that are not shown, active ones among them. Activity calls are given as the source filed them.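 The calls were made as follows: active = lowest replicate activation of at least 40%, so every replicate reaches that level; inactive = the rest.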

Test: primary screen for activators of insulin secretion dependent on glucose, INS-1E cells, GLuc reporter luminescence (AID 743287);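 also: 0% = median of neutral control wells and 100% = median of IBMX positive control wells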
Details: INS-1E GLuc reporter insulin secretion, 2-3 h, at 16.6 µM, hits give high values

Compound | activation
Cc1ccc(C(=O)NCC2(N3CCCCC3)CCCCC2)cc1 | inactive: -6.59%
COc1cc(SC)ccc1C(=O)NCC1(N(C)C)CCCCC1 | inactive: 14.5%
CCN(CC)CC(C)C(C)OC(=O)C(O)(c1ccccc1)c1ccccc1 (configuration not stated) | inactive: 16.3%
CC(C)N1C(=O)CC2(CCN(CCOC(=O)C(O)(c3ccccc3)c3ccccc3)CC2)C1=O | inactive: -6.17%
CN1[C@@H]2CC[C@H]1CC(OC(=O)C(O)(c1ccccc1)c1ccccc1)C2 (some centres not stated) | inactive: 8.12%
O=C(NCC1(N2CCCCC2)CCCCC1)c1cc([N+](=O)[O-])ccc1Cl | inactive: -3.77%
COc1ccc(C(=O)NCC2(N(C)C)CCCCC2)cc1 | inactive: 0.66%
O=C(NCC1(N2CCCCC2)CCCCC1)c1cccc(Br)c1 | inactive: 9.96%
Cc1cc(C(=O)NCC2(N3CCCCC3)CCCCC2)ccc1[N+](=O)[O-] | inactive: 6.16%
CCN1CCCC(OC(=O)C2(O)c3ccccc3C=Cc3ccccc32)C1 (configuration not stated) | inactive: -4.53%
O=C(NCC1(N2CCCCC2)CCCCC1)c1cc(F)c(F)cc1Cl | inactive: -6.62%
C=CCN1CCN(CCOC(=O)C(O)(c2ccccc2)c2ccccc2)CC1 | inactive: 1.43%
CN(C)c1ccc(C(=O)NCC2(N(C)C)CCCCC2)cc1 | inactive: 8.34%
Cc1ccccc1C(=O)NCC1(N2CCCCC2)CCCCC1 | inactive: 23%
O=C(NCC1(N2CCCCC2)CCCCC1)c1cccc(Cl)c1 | inactive: -8.53%
COc1ccc(Cl)cc1C(=O)NCC1(N(C)C)CCCCC1 | inactive: -21.9%
COc1cccc(C(=O)NCC2(N3CCCCC3)CCCCC2)c1 | inactive: 4.8%
COc1cc(C(=O)NCC2(N(C)C)CCCCC2)c([N+](=O)[O-])cc1OC | inactive: -18.2%
CN(C)C1(CNC(=O)c2ccc(Br)cc2)CCCCC1 | inactive: 9.77%
O=C(OCCN1CCCC1)C(O)(c1ccccc1)c1ccccc1 | inactive: 0.87%
CC(C)Oc1ccc(C(=O)NCC2(N(C)C)CCCCC2)cc1 | inactive: -8.08%
COc1ccc(Br)c(C(=O)NCC2(N3CCCCC3)CCCCC2)c1 | inactive: -9.92%
